Assay outcomes deposited in PubChem BioAssay by National Center for Advancing Translational Sciences (NCATS).
Nrf2 inh = inhibitors of Nrf2 signaling. A549 ARE-Fluc reporter, luciferase luminescence, 18-24 h. 360,000 tested, 2.1% active. Potency, µM (titrated, usually from 46 µM), for the others: top-dose activity change, negative = inhibition, usual class: inhibitors. AID 504444; note: potency is the fitted concentration of half-maximal effect; % is set by controls: 0 for no effect and ±100 for the full control effect; nearly all actives have a fitted effect of over 60% in size
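Quantitative HTS in A549 cells stably bearing an antioxidant response element-firefly luciferase construct. Inhibition of Nrf2-driven transcription was scored by luminescence after 18-24 h of compound exposure at 37 °C.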
Nrf2 activator = activators of Nrf2 (ARE) signaling; AREc32 ARE-luciferase reporter (MCF7-derived line), luminescence, 24 h; Potency, µM (titrated, usually from 46.1 µM), for inactives: at the top dose activation, most hits filed as activators; 410,000 tested, 0.31% active; AID 624171; note: potency is the fitted concentration of half-maximal effect; % of control where 0% means no effect; nearly all actives have a fitted effect of over 65% in size
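Luminescent ARE reporter assay in AREc32_Fluc cells: overnight plating at 37 deg C, 24 hr compound incubation, Steady-Glo added, 30 min RT before reading.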
A549 viability = counter-screen for Nrf2 inhibitors: cytotoxicity in A549 cells; A549 ARE-Fluc cells, CellTiter-Fluor viability, 18-24 h; Potency, µM (series often up to 46 µM), inactives show at the highest dose activity change, negative = cytotoxicity, usual class: inhibitors; 390,000 tested, 0.16% active; note: potency is the fitted concentration of half-maximal effect; % is set by controls: 0 for no effect and ±100 for the full control effect
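A549 ARE_Fluc cells in 5% FBS OPTI-MEM were exposed to compounds in concentration-response for 18-24 h at 37 deg C. Viability was read by CellTiter-Fluor fluorescence (Ex 405/Em 525) after 30 min, before the luciferase read.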
miR-21 reporter = miR-21 reporter, rising signal; HeLa miR-21 FLuc reporter, luciferase, 48 h; Potency, µM (titrated, usually from 38.3 µM), for the others: at the top dose reporter change, positive = more light; 340,000 tested, under 10 active; AID 2288; active = well fitted rising curve with a large enough effect; inconclusive = small, poorly fitted or top-dose-only effect; inactive = no such curve, though single readings can be large or run the other way;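 also: % of control where 0% means no effect; miR-21 action dims this reporter so a rising signal means less miR-21 action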
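Using DMEM plus 10% FBS, HeLa miR-21-FLuc cells are incubated with test compounds (final up to about 40uM) for 48 hours; firefly luciferase signal is then imaged following reagent-mediated lysis.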
p53 reactivation = re-activators of mutant p53. H1299 p53-A138V BP100-luciferase reporter, luminescence, 24 h. Potency, µM (series often up to 92.2 µM), for inactives: top-dose activity change, positive = activation, usual class: activators. 320,000 tested, 0.063% active; note: potency is the fitted concentration of half-maximal effect; % of control where 0% means no effect; nearly all actives have a fitted effect of over 45% in size
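p53-null H1299 cells stably carrying temperature-sensitive p53-A138V and a BP100-luciferase reporter were pinned with compounds (4-point, 1:5 series) and held 24 hrs at 37 deg C. Luminescence was read 10 min after detection reagent.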
ClpP mod = qHTS Assay for Activators of ClpP; purified B. subtilis ClpP, FRET peptide cleavage, 20 min; 340,000 tested, 1.9% active; AID 651965, 2013; Potency, µM (series often up to 57.5 µM), for inactives: top-dose activity change, negative = active; active = well fitted falling curve with a large enough effect; inconclusive = small, poorly fitted or top-dose-only effect; inactive = no such curve, though single readings can be large or run the other way; note: potency is the fitted concentration of half-maximal effect; the source files actives as falling curves though it sought activators and does not explain the sign; nearly all actives have a fitted effect of over 65% in size
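Buffer: 100 mM Tris/HCl pH8, 100 mM KCl, 0.05% low protease BSA, 2.5% glycerol, 0.01% Tween-20. ClpP 10 microg/mL final; 20 min RT; delta FRET normalized to ADEP and DMSO controls.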
* marks the source's active call; other numbers are inactive results. Only some compounds are listed: those with a hit (about 3.7% of all), similar ones and a draw of the others. Unless noted, calls come from the whole dose curve; as a rule, active = well fitted curve in the direction sought with a large enough effect; inconclusive = small, poorly fitted or top-dose-only effect, or another doubt; inactive = no such curve, though single readings can be large; an effect the other way counts as inactive or inconclusive.

O=C(NCc1cccs1)c1cnc2ccccn2c1=O was read as Nrf2 inh 3%, Nrf2 activator 0%, A549 viability 8%, miR-21 reporter -24%, p53 reactivation 10% and ClpP mod 25µM*.
`COc1ccccc1CNC(=O)c1cnc2ccccn2c1=O` gave Nrf2 inh 13%, Nrf2 activator 0%, A549 viability -3%, miR-21 reporter -3%, p53 reactivation 2% and ClpP mod 4%.
O=C(NCc1ccc(F)cc1)n1cc(P(=S)(c2ccccc2)c2ccccc2)c2ccccc21 was read as Nrf2 inh -5% and A549 viability -1%.
`O=C(CSc1nc(-c2ccco2)nc2cc(=O)[nH]n12)Nc1ccccc1Cl` gave Nrf2 inh 0%, Nrf2 activator 14µM*, A549 viability 18%, miR-21 reporter -1% and ClpP mod 1%.
For Cc1ccc(Nc2n[nH]c(C)c2[N+](=O)[O-])cc1C the results were Nrf2 inh inconclusive, Nrf2 activator 6%, A549 viability -6%, miR-21 reporter -44%, p53 reactivation 22µM* and ClpP mod -3%.
COc1ccc(N2CCN(C(c3ccccc3)c3nnc(-c4ccccc4Cl)o3)CC2)cc1 (stereo not given) was read as Nrf2 inh inconclusive, Nrf2 activator 8%, A549 viability 0%, miR-21 reporter 0% and ClpP mod -14%.
COc1ccc(-c2cc(C(=O)N3CCN(C(=O)c4ccccc4F)CC3)[nH]n2)cc1 was read as Nrf2 inh inconclusive, Nrf2 activator 0%, A549 viability -10%, miR-21 reporter -3%, p53 reactivation -5% and ClpP mod 2%.
Screening O=C(c1cc(-c2ccc(Br)cc2)n[nH]1)N1CCN(S(=O)(=O)c2ccc(Br)cc2)CC1 returned Nrf2 inh -9%, Nrf2 activator 3%, A549 viability -1%, miR-21 reporter -1% and ClpP mod 0%.
For O=C(c1cc(-c2ccc(Br)cc2)n[nH]1)N1CCN(C(=O)c2ccccc2Br)CC1 the results were Nrf2 inh 26µM*, Nrf2 activator 6%, A549 viability -14%, miR-21 reporter -3%, p53 reactivation -6% and ClpP mod -2%.
COc1ccc(S(=O)(=O)N2CCN(C(=O)c3cc(-c4ccc(Br)cc4)n[nH]3)CC2)cc1OC was read as Nrf2 inh 21µM*, Nrf2 activator 3%, A549 viability -13%, miR-21 reporter inconclusive, p53 reactivation -9% and ClpP mod -1%.
For O=C(N/N=C/c1c(Cl)nc2ccccn2c1=O)c1cccnc1 the results were Nrf2 inh inconclusive, Nrf2 activator 14µM*, A549 viability 4%, miR-21 reporter 0%, p53 reactivation inconclusive and ClpP mod 9%.
For COc1ccc(C(=O)Nc2nc(-c3ccc([N+](=O)[O-])cc3)c(-c3ccccc3)s2)cc1 the results were Nrf2 inh 13µM*, Nrf2 activator 0%, A549 viability -29% and ClpP mod -1%.
For COc1ccc(-c2sc(NC(=O)c3ccc(C)cc3)nc2-c2ccc([N+](=O)[O-])cc2)cc1 the results were Nrf2 inh 4%, Nrf2 activator -1%, A549 viability -3%, miR-21 reporter -3%, p53 reactivation -7% and ClpP mod 0%.
Screening COc1ccc2c(c1)CCc1sc(NC(=O)c3ccc(C)cc3)nc1-2 returned Nrf2 inh inconclusive, Nrf2 activator 0%, A549 viability -21%, miR-21 reporter -15%, p53 reactivation -1% and ClpP mod 35µM*.
CN(C)c1ccc(CNC(=O)C2CCN(C(=O)c3ccc(-n4ccc5ccccc54)s3)CC2)cc1 was read as Nrf2 inh 0%, Nrf2 activator 7%, A549 viability -17%, miR-21 reporter 0% and ClpP mod inconclusive.
`COc1ccc(CNC(=O)C2CCN(C(=O)c3ccc(-n4ccc5ccccc54)s3)CC2)cc1` gave Nrf2 inh 21µM*, Nrf2 activator 3%, A549 viability -25%, miR-21 reporter 7% and ClpP mod inconclusive.
`CCOC(=O)c1[nH]c2ccc(F)cc2c1NC(=O)CN1CCc2cc(OC)c(OC)cc2C1` gave miR-21 reporter 15% and p53 reactivation -9%.
For CCOC(=O)c1[nH]c2ccc(OC)cc2c1NC(=O)CCN1CCC(C)CC1 the results were Nrf2 activator 0%, A549 viability -1%, miR-21 reporter -3%, p53 reactivation 2% and ClpP mod 28µM*.
`COc1ccc(N2CCN(C(=O)c3[nH]c4ccc(OC)cc4c3C)CC2)cc1` gave Nrf2 inh -16%, Nrf2 activator 0%, A549 viability -4%, miR-21 reporter -2% and p53 reactivation -4%.
`COc1ccc(-c2cc(C(=O)N3CCc4ccccc4C3)no2)cc1` gave Nrf2 inh -2%, Nrf2 activator 0%, A549 viability -3%, miR-21 reporter -29%, p53 reactivation -2% and ClpP mod -3%.

3 entries picked at random from those above, as already listed:
Screening COc1ccc2c(c1)CCc1sc(NC(=O)c3ccc(C)cc3)nc1-2 returned Nrf2 inh inconclusive, Nrf2 activator 0%, A549 viability -21%, miR-21 reporter -15%, p53 reactivation -1% and ClpP mod 35µM*.
For COc1ccc(-c2sc(NC(=O)c3ccc(C)cc3)nc2-c2ccc([N+](=O)[O-])cc2)cc1 the results were Nrf2 inh 4%, Nrf2 activator -1%, A549 viability -3%, miR-21 reporter -3%, p53 reactivation -7% and ClpP mod 0%.
For O=C(N/N=C/c1c(Cl)nc2ccccn2c1=O)c1cccnc1 the results were Nrf2 inh inconclusive, Nrf2 activator 14µM*, A549 viability 4%, miR-21 reporter 0%, p53 reactivation inconclusive and ClpP mod 9%.

Next entries
Screening COc1ccc2[nH]c(C(=O)N3CCc4ccccc4C3)c(C)c2c1 returned Nrf2 inh 18µM*, Nrf2 activator 3%, A549 viability 9%, miR-21 reporter -4%, p53 reactivation 21% and ClpP mod inconclusive.
`COc1ccc(OC)c(-c2cc(C(=O)N3CCc4ccccc4C3)no2)c1` gave Nrf2 inh inconclusive, Nrf2 activator 6%, A549 viability inconclusive, miR-21 reporter -25%, p53 reactivation -13% and ClpP mod 25µM*.
Screening CCOC(=O)c1[nH]c2ccc(OC)cc2c1NC(=O)CCN1CCc2ccccc2C1 returned Nrf2 activator 5%, A549 viability 1%, miR-21 reporter 5%, p53 reactivation -2% and ClpP mod 28µM*.
For CCc1ccc(CN(Cc2ccco2)C(=O)c2ccc(OC)cc2)cc1 the results were Nrf2 inh -21%, Nrf2 activator 4%, A549 viability -1%, miR-21 reporter 6% and ClpP mod 0%.
Screening COc1cccc2cc(-c3csc(-c4ccc(Cl)cc4)n3)c(=O)oc12 returned Nrf2 activator 3%, A549 viability 2%, miR-21 reporter 7% and ClpP mod -9%.
For COc1cccc(CNC(=O)N2CCc3c(sc4c3CCCC4)C2c2ccc(F)cc2)c1 (stereo not given) the results were Nrf2 activator 6%, A549 viability 13%, miR-21 reporter 26% and ClpP mod -2%.
